The text below walks through data of article PMC6426815.

Assay [1] addresses tau (human (endogenous in brain tissue)) (UniProt P10636). In words: co-IP; total tau (Tau 5 antibody) immunoprecipitated from human control and late AD brain lysate, S6 detected by blot; lysate without antibody as beads only lanes; n = 3.
The target in assay [2] is ribosomal protein S6 (human (endogenous in brain tissue)) (UniProt P62753). In words: co-IP; S6 immunoprecipitated from human control and late AD brain lysate, tau detected by blot; lysate without antibody as beads only lanes; n = 3.

Regarding “ribosomal protein S6 (from UniProt P62753 1-249) (natural protein; other documents disagree on this pair)”, the percent reduction of S6 co-precipitated with tau, late AD compared to control in assay [1] turned out to be 60%.
For “tau (from UniProt P10636-8 1-441) (natural protein; other documents disagree on this pair)”, the fold increase of tau co-precipitated with S6, late AD relative to control in assay [2] came to 2 fold.
